Assay results taken from US20040171566A1, “Antisense modulation of p38 mitogen activated protein kinase expression” (priority 1999, published 2004).

Columns and labels:
[1] = tested on: human p38β mRNA; assay: Human p38β mRNA expression in T-24 cells; conditions: control oligonucleotide, no dose given
[2] = tested on: human p38α mRNA; assay: Human p38α mRNA expression in T-24 cells; conditions: control oligonucleotide, dose not given

| Sequence | % p38β mRNA Expression [1] [%] | % p38α mRNA Expression [2] [%] |
| --- | --- | --- |
| GTTCGATCGGCTCGTGTCGA | 100 | – |
| TTATCCTAGCTTAGACCTAT | – | 94 |
